Molecular target: recombinant human mGluR4a receptors (Homo sapiens, UniProt Q14833)
Assay: mGluR4 assay on HEK-expressing human mGluR4: fluorescent cell based Ca2+ mobilization assay (FLIPR)
Conditions: read-out: Ca^2+ Flux (mean EC50); HEK-293 cells expressing hmGluR4; enhancement of EC25 glutamate response; mean of at least three independent experiments in duplicate
From the text: mGluR4 Assay on HEK-Expressing Human mGluR4
The compounds of the present invention are positive allosteric modulators of mGluR4 receptor. Their activity was examined on recombinant human mGluR4a receptors by detecting changes in intracellular Ca^2+ concentration, using the fluorescent Ca^2+-sensitive dye Fluo4-(AM) and a Fluorometric Imaging Plate Reader (FLIPR, Molecular Devices, Sunnyvale, Calif.).
The cDNA encoding the human metabotropic glutamate receptor (hmGluR4), (accession number NM 000841.1, NCBI Nucleotide database browser), was subcloned into an expression vector containing also the hygromycin resistance gene. In parallel, the cDNA encoding a G protein allowing redirection of the activation signal to intracellular calcium flux was subcloned into a different expression vector containing also the puromycin resistance gene. Transfection of both these vectors into HEK293 cells with PolyFect reagent (Qiagen) according to supplier's protocol, and hygromycin and puromycin treatment allowed selection of antibiotic resistant cells which had integrated stably one or more copies of the plasmids. […]
After 10 s of basal fluorescence recording, various concentrations of the compounds of the invention were added to the cells. Changes in fluorescence levels were first monitored for 180 s in order to detect any agonist activity of the compounds. […]

Sequences of proteins named here, by UniProt entry; tags and fusion partners are left off. Residues count along the entry.
UniProt Q14833, 33-912 limits assumed: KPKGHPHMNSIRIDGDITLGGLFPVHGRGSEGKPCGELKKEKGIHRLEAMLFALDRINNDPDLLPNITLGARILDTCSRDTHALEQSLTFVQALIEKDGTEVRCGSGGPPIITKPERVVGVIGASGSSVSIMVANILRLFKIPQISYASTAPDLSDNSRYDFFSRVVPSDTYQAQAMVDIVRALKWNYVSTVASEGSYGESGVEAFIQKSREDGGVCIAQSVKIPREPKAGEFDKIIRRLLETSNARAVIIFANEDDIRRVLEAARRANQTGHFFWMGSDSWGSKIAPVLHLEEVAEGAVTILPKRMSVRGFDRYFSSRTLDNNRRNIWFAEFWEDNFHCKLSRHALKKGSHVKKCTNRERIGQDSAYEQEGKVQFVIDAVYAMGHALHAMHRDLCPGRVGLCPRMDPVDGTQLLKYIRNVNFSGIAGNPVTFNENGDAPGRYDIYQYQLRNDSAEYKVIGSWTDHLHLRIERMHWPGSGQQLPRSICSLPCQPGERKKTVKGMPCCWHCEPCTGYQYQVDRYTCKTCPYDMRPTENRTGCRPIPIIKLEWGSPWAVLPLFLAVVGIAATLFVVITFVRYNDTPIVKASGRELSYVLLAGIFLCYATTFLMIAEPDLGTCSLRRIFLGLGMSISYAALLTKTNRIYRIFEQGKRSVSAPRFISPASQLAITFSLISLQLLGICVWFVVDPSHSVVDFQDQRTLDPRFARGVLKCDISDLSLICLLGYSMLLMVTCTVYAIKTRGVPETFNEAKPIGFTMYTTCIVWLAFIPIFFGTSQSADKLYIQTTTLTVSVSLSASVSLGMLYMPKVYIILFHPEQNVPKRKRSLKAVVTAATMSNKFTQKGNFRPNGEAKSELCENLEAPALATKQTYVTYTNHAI

| Structure (SMILES) | EC50 [nM] |
| --- | --- |
| Cc1cccc(Nc2nc3c(s2)CCN(Cc2cc(C)on2)c2[nH]ncc2-3)n1 | 100 to 1000 |
| COCCCN1CCc2sc(Nc3ncc(F)cn3)nc2-c2cn[nH]c21 | < 100 |

Reference: patent US20140349994A1, “Novel 2-Amino-4,5,6,8-Tetrahydropyrazolo[3,4-b]Thiazolo [4,5-d]Azepine Derivatives and Their Use as Allosteric Modulators of Metabotropic Glutamate Receptors” (Addex Pharma S.A., priority 2012, published 2014)
